Results taken from the NIST ThermoML archive (doi:10.1016/j.jct.2006.09.015).
Numbers after ± are expanded uncertainties.

Legend:
[1] = relative permittivity at various frequencies (dimensionless); conditions: 101.3 kPa, Liquid, Frequency=3 MHz, Bridge type OH-301 made in Radelcis, Hungary
[2] = relative permittivity at various frequencies (dimensionless); xn = mol fraction of the nth substance listed; conditions: 101.3 kPa, Liquid, Frequency=3 MHz, Bridge type OH-301 made in Radelcis, Hungary

OCCOCCOCCOCCO [tetraethylene glycol]
[1]
Conditions | relative permittivity
293.15 K | 20.44 ± 0.04
298.15 K | 19.91 ± 0.04
303.15 K | 19.35 ± 0.04

OCCOCCOCCOCCO [tetraethylene glycol] + COCCO
relative permittivity, [2]
Conditions | 293.15 K | 298.15 K | 303.15 K
x2 = 0 | 20.44 ± 0.04 | 19.91 ± 0.04 | 19.35 ± 0.04
x2 = 0.0559 | 20.56 ± 0.04 | 19.99 ± 0.04 | 19.43 ± 0.04
x2 = 0.1009 | 20.66 ± 0.04 | 20.09 ± 0.04 | 19.52 ± 0.04
x2 = 0.2001 | 20.92 ± 0.04 | 20.34 ± 0.04 | 19.73 ± 0.04
x2 = 0.3 | 21.15 ± 0.04 | 20.58 ± 0.04 | 19.92 ± 0.04
x2 = 0.4 | 21.38 ± 0.04 | 20.78 ± 0.04 | 20.15 ± 0.04
x2 = 0.5004 | 21.63 ± 0.04 | 20.97 ± 0.04 | 20.4 ± 0.04
x2 = 0.5973 | 21.86 ± 0.04 | 21.1 ± 0.04 | 20.56 ± 0.04
x2 = 0.7 | 22 ± 0.04 | 21.12 ± 0.04 | 20.49 ± 0.04
x2 = 0.7999 | 21.63 ± 0.04 | 20.71 ± 0.04 | 20.02 ± 0.04
x2 = 0.9001 | 20.44 ± 0.04 | 19.57 ± 0.04 | 18.81 ± 0.04
x2 = 0.95 | 19.17 ± 0.04 | 18.49 ± 0.04 | 17.76 ± 0.04
